{
  "sequences": {"note": "The chains behind the UniProt entries cited, without tags or fusion partners. Residues count along the entry.", "UniProt P28907, 45-300 N100D/N164A/N209D/N219D limits assumed": "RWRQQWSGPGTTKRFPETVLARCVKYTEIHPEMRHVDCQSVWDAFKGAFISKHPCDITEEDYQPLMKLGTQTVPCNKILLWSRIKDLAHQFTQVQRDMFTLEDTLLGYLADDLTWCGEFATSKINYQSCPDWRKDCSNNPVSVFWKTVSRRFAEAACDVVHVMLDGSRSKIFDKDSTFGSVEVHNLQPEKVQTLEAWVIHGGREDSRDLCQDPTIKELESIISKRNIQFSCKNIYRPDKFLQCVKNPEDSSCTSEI"},
  "source": "paper PMC3686795",
  "about": "“CD38 Structure-Based Inhibitor Design Using the N1-Cyclic Inosine 5′-Diphosphate Ribose Template” (PLoS ONE, 2013)",
  "target": "T1, wild-type CD38 (cADPR hydrolase activity) (Homo sapiens, UniProt P28907, N100D/N164A/N209D/N219D)",
  "T1 construct": "Crystal structure of human CD38 extracellular domain; made in house",
  "assay": "Enzymatic assay for cADPR hydrolysis (inhibition of CD38-catalyzed cADPR hydrolysis, fluorimetric cycling assay)",
  "type": "biochemical",
  "conditions": "1 µM cADPR, 2 µg/mL CD38, 10 min, 20–24°C, pH 4.5",
  "protocol": "The inhibition of cADPR hydrolysis by various concentrations of inhibitor (0–1 mM) was determined by incubating 1 µM cADPR with 2 µg/mL of CD38 for 10 min at 20–24°C in 25 mM sodium acetate, pH 4.5. The reaction was stopped by the addition of 150 mM HCl. The precipitated protein was filtered, and the pH was neutralized with Tris base. After diluting the mixture 20-fold, the concentration of the unhydrolyzed cADPR present in the diluted reaction mixture was assayed by the fluorimetric cycling assay as previously described.",
  "data": [
    {"smiles": "O=c1c2nc(Br)n3c2ncn1[C@@H]1O[C@H](COP(=O)(O)OP(=O)(O)OC[C@H]2O[C@@H]3[C@H](O)[C@@H]2O)[C@@H](O)[C@H]1O", "note": "[8-Bromo N1-cIDPR, 8-bromo N1-cIDPR]", "values": [
      {"measurement": "IC50", "value": 158, "unit": "µM"}
    ]}
  ]
}
